Reference: patent US11203574B2 (BioCryst Pharmaceuticals, Inc., priority 2014, dated 2021)

By UniProt entry, the sequences of proteins in these tests, tags left out.
UniProt P03952, whole entry partner, looked up: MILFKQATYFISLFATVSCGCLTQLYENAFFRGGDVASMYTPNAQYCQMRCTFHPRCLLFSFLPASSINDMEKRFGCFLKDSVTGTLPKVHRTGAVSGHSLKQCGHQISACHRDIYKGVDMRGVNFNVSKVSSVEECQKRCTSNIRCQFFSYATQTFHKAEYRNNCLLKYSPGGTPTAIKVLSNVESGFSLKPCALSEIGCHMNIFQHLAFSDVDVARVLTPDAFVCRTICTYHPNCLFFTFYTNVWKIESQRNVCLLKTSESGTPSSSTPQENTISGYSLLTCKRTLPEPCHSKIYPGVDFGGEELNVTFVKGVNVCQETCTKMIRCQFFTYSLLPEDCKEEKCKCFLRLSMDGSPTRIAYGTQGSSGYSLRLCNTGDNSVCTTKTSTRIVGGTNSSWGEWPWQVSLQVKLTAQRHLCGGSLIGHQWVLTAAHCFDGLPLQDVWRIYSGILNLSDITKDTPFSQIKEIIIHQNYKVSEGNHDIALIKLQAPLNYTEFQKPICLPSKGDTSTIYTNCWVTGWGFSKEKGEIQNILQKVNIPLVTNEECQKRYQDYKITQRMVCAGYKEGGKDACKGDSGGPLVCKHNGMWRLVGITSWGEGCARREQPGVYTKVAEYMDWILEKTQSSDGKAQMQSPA

Target: human plasma kallikrein (Homo sapiens (Human), UniProt P03952)
Assay: Plasma kallikrein activity assay (chromogenic substrate S2302)
Type: biochemical
Conditions: 2 nM kallikrein, 80 μM S2302, 30° C., pH 7.8; Ki by Cheng-Prusoff equation; values given as ranges

| Compound | Ki [nM] |
| --- | --- |
| NCc1cccc(-n2nc(C(F)(F)F)cc2C(=O)Nc2cccc(C(NCC3CC3)c3ccccc3)c2)c1 (stereo not shown) [41e, 1-(3-(Aminomethyl)phenyl)-N-(3-(((cyclopropylmethyl)amino)(phenyl)methyl)phenyl)-3-(trifluoromethyl)-1H-pyrazole-5-carboxamide] | 0.1 to 50 |
| NCc1cccc(-n2nc(C(F)(F)F)cc2C(=O)Nc2cccc(C(NCC3CC3)c3cccc(OCc4ccccc4)c3)c2)c1 (stereo not shown) [107f, 1-(3-(Aminomethyl)phenyl)-N-(3-((3-(benzyloxy)phenyl)(cyclopropylmethylamino)methyl)phenyl)-3-(trifluoromethyl)-1H-pyrazole-5-carboxamide] | 0.1 to 50 |
| CC(C)c1ccc(C(NCC2CC2)c2cccc(NC(=O)c3cc(C(F)(F)F)nn3-c3cccc(CN)c3)c2)cc1 (stereo not shown) [120e, 1-(3-(aminomethyl)phenyl)-N-(3-(((cyclopropylmethyl)amino)(4-isopropylphenyl)methyl)phenyl)-3-(trifluoromethyl)-1H-pyrazole-5-carboxamide] | 0.1 to 50 |
| CN(C1CC1)C(c1ccc(CN)cc1)c1ccc(F)c(NC(=O)c2cc(C(F)(F)F)nn2-c2cccc(CN)c2)c1 (stereo not shown) [139b, 1-(3-(aminomethyl)phenyl)-N-(5-((4-(aminomethyl)phenyl)(cyclopropyl-methylamino)methyl)-2-fluorophenyl)-3-(trifluoromethyl)-1H-pyrazole-5-carboxamide] | 0.1 to 50 |
| N#Cc1cccc(C(NCC2CC2)c2ccc(F)c(NC(=O)c3cc(C(F)(F)F)nn3-c3ccc4ccnc(N)c4c3)c2)c1 (single isomer, unassigned; (+)) [257b, (+)-1-(1-aminoisoquinolin-7-yl)-N-(5-((3-cyanophenyl)(cyclopropylmethylamino)methyl)-2-fluorophenyl)-3-(trifluoromethyl)-1H-pyrazole-5-carboxamide] | 0.1 to 50 |
| COc1ccc(C(NCC2CC2)c2ccc(F)c(NC(=O)c3cc(C(F)(F)F)nn3-c3cccc(CN)c3)c2)cc1 (stereo not shown) [142f, 1-(3-(aminomethyl)phenyl)-N-(5-(((cyclopropylmethyl)amino)(4-methoxyphenyl)methyl)-2-fluorophenyl)-3-(trifluoromethyl)-1H-pyrazole-5-carboxamide] | 0.1 to 50 |
| NCc1cccc(-n2nc(C(F)(F)F)cc2C(=O)Nc2cccc(C(NCC3CC3)c3ccc(OCc4ccccc4)cc3)c2)c1 (stereo not shown) [123g, 1-(3-(aminomethyl)phenyl)-N-(3-((4-(benzyloxy)phenyl)(cyclopropylmethylamino)methyl)phenyl)-3-(trifluoromethyl)-1H-pyrazole-5-carboxamide] | 0.1 to 50 |
| NCc1cccc(-n2nc(C(F)(F)F)cc2C(=O)Nc2cc(C3CC3)cc(C(NCC3CC3)c3ccccc3)c2)c1 (stereo not shown) [95i, 1-(3-(aminomethyl)phenyl)-N-(3-cyclopropyl-5-((cyclopropylmethylamino)(phenyl)methyl)phenyl)-3-(trifluoromethyl)-1H-pyrazole-5-carboxamide] | 0.1 to 50 |
| COc1ccccc1C(NCC1CC1)c1cccc(NC(=O)c2cc(C(F)(F)F)nn2-c2cccc(CN)c2)c1 (stereo not shown) [119e, 1-(3-(aminomethyl)phenyl)-N-(3-(((cyclopropylmethyl)amino)(2-methoxyphenyl)methyl)phenyl)-3-(trifluoromethyl)-1H-pyrazole-5-carboxamide] | 0.1 to 50 |
| NCc1cccc(C(NCC2CC2)c2cccc(NC(=O)c3cc(C(F)(F)F)nn3-c3cccc(CN)c3)c2)c1 (stereo not shown) [108e, 1-(3-(Aminomethyl)phenyl)-N-(3-((3-(aminomethyl)phenyl)(cyclopropylmethylamino)methyl)phenyl)-3-(trifluoromethyl)-1H-pyrazole-5-carboxamide] | 0.1 to 50 |
| Nc1nccc2ccc(-n3nc(C(F)(F)F)cc3C(=O)Nc3cc(C(NCC4CC4)c4ccccc4)ccc3F)cc12 (single isomer, unassigned; (-)) [235g, (−)-1-(1-aminoisoquinolin-7-yl)-N-(5-((cyclopropylmethylamino)(phenyl)methyl)-2-fluorophenyl)-3-(trifluoromethyl)-1H-pyrazole-5-carboxamide] | 0.1 to 50 |
| NCc1cccc(-n2nc(C(=O)O)cc2C(=O)Nc2cc(C(NCC3CC3)c3ccccc3)ccc2F)c1 (single isomer, unassigned; (+)) [246f, (+)-1-(3-(aminomethyl)phenyl)-5-(5-((cyclopropylmethylamino)(phenyl)methyl)-2-fluorophenylcarbamoyl)-1H-pyrazole-3-carboxylic acid] | 0.1 to 50 |
| NCc1cccc(-n2nc(C(N)=O)cc2C(=O)Nc2cc(C(NCC3CC3)c3ccccc3)ccc2F)c1 (single isomer, unassigned; (-)) [229i, (−)-1-(3-(aminomethyl)phenyl)-N5-(5-((cyclopropylmethylamino)(phenyl)-methyl)-2-fluorophenyl)-1H-pyrazole-3,5-dicarboxamide] | 0.1 to 50 |
